Test results published in patent US10442819B2, “Tricyclic compounds as inhibitors of mutant IDH enzymes” (Merck Sharp & Dohme Corp., priority 2014, dated 2019).

By UniProt entry, the sequences of proteins in these tests, tags left out.
UniProt O75874, whole entry R132H: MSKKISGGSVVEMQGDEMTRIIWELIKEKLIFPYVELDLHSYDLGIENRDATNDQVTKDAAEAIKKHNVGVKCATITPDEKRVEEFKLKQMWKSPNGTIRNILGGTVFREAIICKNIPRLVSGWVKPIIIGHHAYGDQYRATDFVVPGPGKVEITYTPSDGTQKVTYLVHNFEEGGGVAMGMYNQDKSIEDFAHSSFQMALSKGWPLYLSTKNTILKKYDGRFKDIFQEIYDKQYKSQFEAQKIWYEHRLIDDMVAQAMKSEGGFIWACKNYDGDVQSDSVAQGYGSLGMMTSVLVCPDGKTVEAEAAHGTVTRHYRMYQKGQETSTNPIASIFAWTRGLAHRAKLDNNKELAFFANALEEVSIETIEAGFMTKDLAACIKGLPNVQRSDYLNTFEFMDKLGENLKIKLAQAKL

Target: R132H mutant IDH1 enzyme (Homo sapiens (Human), UniProt O75874, R132H)
Experiment: R132H IDH1 Enzymatic Assay
Type: biochemical
Conditions: R132H mutant IDH1 enzyme 1.5 nM final; luminescence readout; read-out: IC50

Row | Structure (SMILES) | IC50 [nM]
1 | CO[C@@H](C(C)C)[C@H]1CC[C@@H](C(=O)N2Cc3cccnc3Nc3ccc(N4CCOCC4)cc32)CC1 [Example 116, 6-({cis-4-[(1S)-1-methoxy-2-methylpropyl]cyclohexyl}-carbonyl)-8-morpholin-4-yl-6,11-dihydro-5H-pyrido[2,3-b][1,5]benzodiazepine] | 155
2 | CO[C@H](C(C)C)[C@H]1CC[C@@H](C(=O)N2Cc3cccnc3Nc3ccc(N4CCOCC4)cc32)CC1 [Example 117, 6-({cis-4-[(1R)-1-methoxy-2-methylpropyl]cyclohexyl}-carbonyl)-8-morpholin-4-yl-6,11-dihydro-5H-pyrido[2,3-b][1,5]benzodiazepine] | 91
3 | CO[C@@H](C(C)C)[C@H]1CC[C@H](C(=O)N2Cc3cccnc3Nc3ccc(N4CCOCC4)cc32)CC1 [Example 118, 6-({trans-4-[(1S)-1-methoxy-2-methylpropyl]cyclohexyl}-carbonyl)-8-morpholin-4-yl-6,11-dihydro-5H-pyrido[2,3-b][1,5]benzodiazepine] | 30
4 | CO[C@H](C(C)C)[C@H]1CC[C@H](C(=O)N2Cc3cccnc3Nc3ccc(N4CCOCC4)cc32)CC1 [Example 119, 6-({trans-4-[(1R)-1-methoxy-2-methylpropyl]cyclohexyl}-carbonyl)-8-morpholin-4-yl-6,11-dihydro-5H-pyrido[2,3-b][1,5]benzodiazepine] | 68
5 | CO[C@H]1CC[C@](F)(C(=O)N2Cc3cccnc3Nc3ccc(N4CCOCC4)cc32)CC1 [Example 120, 6-[(cis-1-fluoro-4-methoxycyclohexyl)car-bonyl]-8-morpholin-4-yl-6,11-dihydro-5H-pyrido[2,3-b][1,5]benzodiazepine] | 298
6 | C[C@@H]1C[C@H](C)C[C@@H](C(=O)N2Cc3cccnc3Nc3ccc(N4CCOCC4)cc32)C1 [Example 121, 6-{[(1r,3R,5S)-3,5-dimethylcyclohexyl]car-bonyl}-8-morpholin-4-yl-6,11-dihydro-5H-pyrido[2,3-b][1,5]benzodiazepine] | 153
7 | CO[C@@H]1[C@H](C)C[C@@H](C(=O)N2Cc3cccnc3Nc3ccc(N4CCOCC4)cc32)C[C@@H]1C [Example 122, 6-{[(1s,3R,4s,5S)-4-methoxy-3,5-dimethylcyclohexyl]car-bonyl}-8-morpholin-4-yl-6,11-dihydro-5H-pyrido[2,3-b][1,5]benzodiazepine] | 740
8 | C[C@@H]1C[C@H](C)C[C@H](C(=O)N2Cc3cccnc3Nc3ccc(N4CCOCC4)cc32)C1 [Example 123, 6-{[(1s,3R,5S)-3,5-dimethylcyclohexyl]car-bonyl}-8-morpholin-4-yl-6,11-dihydro-5H-pyrido[2,3-b][1,5]benzodiazepine] | 59
9 | CO[C@@H]1[C@H](C)C[C@H](C(=O)N2Cc3cccnc3Nc3ccc(N4CCOCC4)cc32)C[C@@H]1C [Example 124, 6-{[(1r,3R,4s,5S)-4-methoxy-3,5-dimethylcyclohexyl]car-bonyl}-8-morpholin-4-yl-6,11-dihydro-5H-pyrido[2,3-b][1,5]benzodiazepine] | 120
10 | [2H]C([2H])([2H])C([2H])(O[C@H]1CC[C@H](C(=O)N2Cc3cccnc3Nc3ccc(N4CCOCC4)cc32)CC1)C([2H])([2H])[2H] [Example 125, [8-(morpholin-4-yl)-5,11-dihydro-6H-pyrido[2,3-b][1,5]benzodiazepin-6-yl]{trans-4-[(^2H7)propan-2-yloxy]cyclohexyl}metha-none] | 61
11 | [2H]C([2H])([2H])C([2H])(O[C@H]1CC[C@@H](C(=O)N2Cc3cccnc3Nc3ccc(N4CCOCC4)cc32)CC1)C([2H])([2H])[2H] [Example 126, [8-(morpholin-4-yl)-5,11-dihydro-6H-pyrido[2,3-b][1,5]benzodiazepin-6-yl]{cis-4-[(^2H7)propan-2-yloxy]cyclohexyl}metha-none] | 126
12 | C=CC1CCC(C(=O)N2Cc3cccnc3Nc3ccc(N4CCOCC4)cc32)CC1 (stereo not drawn) [Example 127, 6-[(4-ethenylcyclohexyl)carbon-yl]-8-morpholin-4-yl-6,11-dihydro-5H-pyrido[2,3-b][1,5]benzodiazepine] | 40
